In article PMC10491346, “Enzyme Mechanistic Studies of NMA1982, a Protein Tyrosine Phosphatase and Potential Virulence Factor in Neisseria meningitidis” (Research Square, 2023):

Biological target: T1, PTP1B (Homo sapiens, UniProt P18031)
T1 construct: gene PTPN1
T1 sequence (P18031 1-435): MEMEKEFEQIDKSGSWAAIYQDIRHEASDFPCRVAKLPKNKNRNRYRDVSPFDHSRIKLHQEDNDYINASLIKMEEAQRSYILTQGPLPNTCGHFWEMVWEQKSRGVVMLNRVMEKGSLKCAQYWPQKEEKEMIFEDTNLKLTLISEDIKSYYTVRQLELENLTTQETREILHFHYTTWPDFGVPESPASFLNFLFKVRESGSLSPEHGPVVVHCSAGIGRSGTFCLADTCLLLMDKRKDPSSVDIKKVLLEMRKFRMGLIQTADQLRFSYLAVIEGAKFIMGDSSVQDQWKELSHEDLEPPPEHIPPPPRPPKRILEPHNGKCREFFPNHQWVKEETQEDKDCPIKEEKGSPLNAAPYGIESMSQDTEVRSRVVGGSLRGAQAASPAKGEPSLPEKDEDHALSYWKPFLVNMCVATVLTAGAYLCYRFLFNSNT
Assay: continuous fluorescence phosphatase assay, Michaelis-Menten fit
Assay type: biochemical
Settings: similar assay setup as for NMA1982 (Bis-Tris pH 6.0, room temperature)

`Cc1cc(=O)oc2c(F)c(OP(=O)(O)O)c(F)cc12` [DiFMUP] was tested, and the Km was 4 µM.
